# Only a part is listed here, and it is no random draw. Some compounds were tested as several samples or in several runs, with calls that do not always agree. Activity calls are given as the source filed them. Cut-off read from the data, not from the text of the source: active = growth inhibition above about 70%; inactive = the rest.
# Columns and labels:
# [1] = NCI Yeast Anticancer Drug Screen. Data for the rad50 strain (AID 155);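 note: 0% = growth of vehicle-only cultures of the same strain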; details: S. cerevisiae rad50 strain growth inhibition, stronger effect = higher value
# [2] = NCI Yeast Anticancer Drug Screen. Data for the mec2-1 strain (AID 157); details: S. cerevisiae mec2-1 strain, stronger effect = higher value
# [3] = NCI Yeast Anticancer Drug Screen. Data for the sgs1 mgt1 strain (AID 161);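 note: 0% = growth of cultures given vehicle only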; details: S. cerevisiae sgs1 mgt1 strain, stronger effect = higher value
# [4] = NCI Yeast Anticancer Drug Screen. Data for the cln2 rad14 strain (AID 165);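 note: 0% = growth equal to vehicle treated cultures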; details: S. cerevisiae cln2 rad14 strain, stronger effect = higher value
# [5] = NCI Yeast Anticancer Drug Screen. Data for the bub3 strain (AID 167); details: S. cerevisiae bub3 mutant strain, stronger effect = higher value
# [6] = NCI Yeast Anticancer Drug Screen. Data for the mlh1 rad18 strain (AID 175); details: S. cerevisiae mlh1 rad18 strain growth inhibition, stronger effect = higher value
# [7] = NCI Yeast Anticancer Drug Screen. Data for the mlh1 strain (AID 171);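 note: 0% = growth of vehicle-treated control cultures of the same strain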; details: S. cerevisiae mlh1 strain growth inhibition, stronger effect = higher value
# How it was run: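 Measured: yeast growth. Reference: vehicle-treated controls. Organism: strain with a defined alteration affecting DNA damage repair or cell cycle control, treated with compound.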
# [8] = at 5.0 µM (retest, dose inferred, filed as 0.5)
# [9] = at 50.0 µM (retest, dose inferred, filed as 5.0)
compound,measurement,setting,value
O=C(Cl)c1c([N+](=O)[O-])cc([N+](=O)[O-])cc1[N+](=O)[O-],growth inhibition,[1]; [8],inactive: 9%
same,growth inhibition,[1]; [9],active: 94%
same,growth inhibition,[1]; at 50.0 µM,active: 99.5%
same,growth inhibition,[2]; [8],inactive: 14%
same,growth inhibition,[2]; [9],active: 98%
same,growth inhibition,[2]; at 50.0 µM,active: 98.8%
same,growth inhibition,[3]; [8],inactive: 20%
same,growth inhibition,[3]; [9],active: 95%
same,growth inhibition,[3]; at 50.0 µM,active: 99%
same,growth inhibition,[4]; [8],inactive: -16%
same,growth inhibition,[4]; [9],inactive: 44%
same,growth inhibition,[4]; at 50.0 µM,active: 91.7%
same,growth inhibition,[5]; [8],inactive: 1%
same,growth inhibition,[5]; [9],active: 98%
same,growth inhibition,[5]; at 50.0 µM,active: 98.7%
same,growth inhibition,[6]; [8],inactive: 18%
same,growth inhibition,[6]; [9],active: 98%
same,growth inhibition,[6]; at 50.0 µM,active: 99.5%
CSC(C)C(C)[S+](C)C.O=[N+]([O-])c1cc([N+](=O)[O-])c(S(=O)(=O)[O-])c([N+](=O)[O-])c1,growth inhibition,[1]; [8],inactive: 5%
same,growth inhibition,[1]; [9],inactive: 24%
same,growth inhibition,[1]; at 50.0 µM,inactive: 44.3%
same,growth inhibition,[2]; [8],inactive: 5%
same,growth inhibition,[2]; [9],inactive: 50%
same,growth inhibition,[2]; at 50.0 µM,inactive: 28.8%
same,growth inhibition,[3]; [8],inactive: 2%
same,growth inhibition,[3]; [9],inactive: 60%
same,growth inhibition,[3]; at 50.0 µM,active: 72.5%
same,growth inhibition,[4]; [8],inactive: -4%
same,growth inhibition,[4]; [9],inactive: 26%
same,growth inhibition,[4]; at 50.0 µM,inactive: 44.5%
same,growth inhibition,[5]; [8],inactive: 4%
same,growth inhibition,[5]; [9],inactive: 36%
same,growth inhibition,[5]; at 50.0 µM,inactive: 28.9%
same,growth inhibition,[6]; [8],inactive: 28%
same,growth inhibition,[6]; [9],inactive: 57%
same,growth inhibition,[6]; at 50.0 µM,inactive: 32.5%
COc1ccc2nccc(C=O)c2c1.O=[N+]([O-])c1cc([N+](=O)[O-])c(O)c([N+](=O)[O-])c1,growth inhibition,[1]; [8],inactive: -1%
same,growth inhibition,[1]; [9],inactive: 33%
same,growth inhibition,[1]; at 50.0 µM,inactive: 53.5%
same,growth inhibition,[2]; [8],inactive: -3%
same,growth inhibition,[2]; [9],inactive: 30%
same,growth inhibition,[2]; at 50.0 µM,inactive: 29.2%
same,growth inhibition,[3]; [8],inactive: 3%
same,growth inhibition,[3]; [9],inactive: 26%
same,growth inhibition,[3]; at 50.0 µM,inactive: 69.4%
same,growth inhibition,[4]; [8],inactive: -2%
same,growth inhibition,[4]; [9],inactive: 19%
same,growth inhibition,[4]; at 50.0 µM,inactive: 24.2%
same,growth inhibition,[5]; [8],inactive: -3%
same,growth inhibition,[5]; [9],inactive: 14%
same,growth inhibition,[5]; at 50.0 µM,inactive: 13.3%
same,growth inhibition,[6]; [8],inactive: 22%
same,growth inhibition,[6]; [9],inactive: 62%
same,growth inhibition,[6]; at 50.0 µM,inactive: 61.9%
C/C(=N\OC(C)([N+](=O)[O-])[N+](=O)[O-])[N+](=O)[O-],growth inhibition,[1]; [8],inactive: -151%
same,growth inhibition,[1]; [9],active: 89%
same,growth inhibition,[1]; at 50.0 µM,active: 99.7%
same,growth inhibition,[2]; [8],inactive: -48%
same,growth inhibition,[2]; [9],active: 91%
same,growth inhibition,[2]; at 50.0 µM,active: 99.7%
same,growth inhibition,[3]; [8],inactive: -64%
same,growth inhibition,[3]; [9],active: 81%
same,growth inhibition,[3]; at 50.0 µM,active: 99.5%
same,growth inhibition,[4]; [8],inactive: -61%
same,growth inhibition,[4]; [9],active: 82%
same,growth inhibition,[4]; at 50.0 µM,active: 99.2%
same,growth inhibition,[5]; [8],inactive: -53%
same,growth inhibition,[5]; [9],active: 85%
same,growth inhibition,[5]; at 50.0 µM,active: 99.5%
same,growth inhibition,[6]; [8],inactive: -124%
same,growth inhibition,[6]; [9],active: 79%
same,growth inhibition,[6]; at 50.0 µM,active: 99.7%
Cc1c2ccccc2cc2ccccc12.O=[N+]([O-])c1cc([N+](=O)[O-])c(O)c([N+](=O)[O-])c1,growth inhibition,[1]; at 1.2 µM,inactive: -1%
same,growth inhibition,[1]; at 3.7 µM,inactive: -36%
same,growth inhibition,[1]; [8],inactive: 31%
same,growth inhibition,[1]; at 11.0 µM,inactive: 38%
same,growth inhibition,[1]; at 33.0 µM,active: 80%
same,growth inhibition,[1]; [9],active: 99%
same,growth inhibition,[1]; at 50.0 µM,active: 98.8%
same,growth inhibition,[1]; at 100.0 µM,active: 96%
same,growth inhibition,[2]; at 1.2 µM,inactive: -1%
same,growth inhibition,[2]; at 3.7 µM,inactive: 2%
same,growth inhibition,[2]; [8],inactive: 21%
same,growth inhibition,[2]; at 11.0 µM,inactive: 8%
same,growth inhibition,[2]; at 33.0 µM,inactive: 26%
same,growth inhibition,[2]; [9],active: 100%
same,growth inhibition,[2]; at 50.0 µM,active: 99.4%
same,growth inhibition,[2]; at 100.0 µM,active: 97%
same,growth inhibition,[3]; [8],inactive: 34%
same,growth inhibition,[3]; [9],active: 99%
same,growth inhibition,[3]; at 50.0 µM,active: 99.1%
same,growth inhibition,[4]; [8],inactive: 21%
same,growth inhibition,[4]; [9],active: 98%
same,growth inhibition,[4]; at 50.0 µM,active: 98.5%
same,growth inhibition,[5]; at 1.2 µM,inactive: 1%
same,growth inhibition,[5]; at 3.7 µM,inactive: -3%
same,growth inhibition,[5]; [8],inactive: 18%
same,growth inhibition,[5]; at 11.0 µM,inactive: 1%
same,growth inhibition,[5]; at 33.0 µM,inactive: 31%
same,growth inhibition,[5]; [9],active: 99%
same,growth inhibition,[5]; at 50.0 µM,active: 98.8%
same,growth inhibition,[5]; at 100.0 µM,active: 97%
same,growth inhibition,[7]; at 1.2 µM,inactive: -2%
same,growth inhibition,[7]; at 3.7 µM,inactive: -1%
same,growth inhibition,[7]; at 11.0 µM,inactive: 5%
same,growth inhibition,[7]; at 33.0 µM,inactive: 32%
same,growth inhibition,[7]; at 100.0 µM,active: 97%
same,growth inhibition,[6]; [8],inactive: 28%
same,growth inhibition,[6]; [9],active: 99%
same,growth inhibition,[6]; at 50.0 µM,active: 99.2%
Cc1ccc2ccc3ccc4ccccc4c3c2c1.O=C1c2cc([N+](=O)[O-])ccc2-c2c1cc([N+](=O)[O-])cc2[N+](=O)[O-],growth inhibition,[1]; at 1.2 µM,inactive: 1%
same,growth inhibition,[1]; at 3.7 µM,inactive: 5%
same,growth inhibition,[1]; [8],inactive: 14%
same,growth inhibition,[1]; at 11.0 µM,inactive: 11%
same,growth inhibition,[1]; at 33.0 µM,inactive: 18%
same,growth inhibition,[1]; [9],inactive: 51%
same,growth inhibition,[1]; at 50.0 µM,active: 89%
same,growth inhibition,[1]; at 100.0 µM,inactive: 20%
same,growth inhibition,[2]; at 1.2 µM,inactive: -3%
same,growth inhibition,[2]; at 3.7 µM,inactive: 3%
same,growth inhibition,[2]; [8],inactive: 11%
same,growth inhibition,[2]; at 11.0 µM,inactive: 9%
same,growth inhibition,[2]; at 33.0 µM,inactive: 17%
same,growth inhibition,[2]; [9],inactive: 31%
same,growth inhibition,[2]; at 50.0 µM,active: 79%
same,growth inhibition,[2]; at 100.0 µM,inactive: 31%
same,growth inhibition,[3]; [8],inactive: 20%
same,growth inhibition,[3]; [9],inactive: 55%
same,growth inhibition,[3]; at 50.0 µM,active: 81.6%
same,growth inhibition,[4]; [8],inactive: 2%
same,growth inhibition,[4]; [9],inactive: 4%
same,growth inhibition,[4]; at 50.0 µM,inactive: 13.2%
same,growth inhibition,[5]; at 1.2 µM,inactive: -2%
same,growth inhibition,[5]; at 3.7 µM,inactive: -2%
same,growth inhibition,[5]; [8],inactive: 6%
same,growth inhibition,[5]; at 11.0 µM,inactive: -1%
same,growth inhibition,[5]; at 33.0 µM,inactive: 7%
same,growth inhibition,[5]; [9],inactive: 31%
same,growth inhibition,[5]; at 50.0 µM,active: 89.3%
same,growth inhibition,[5]; at 100.0 µM,inactive: 7%
same,growth inhibition,[6]; [8],inactive: 30%
same,growth inhibition,[6]; [9],inactive: 50%
same,growth inhibition,[6]; at 50.0 µM,active: 88.6%
C[n+]1ccccc1/C=C/c1ccccc1.O=[N+]([O-])c1cc([N+](=O)[O-])c([O-])c([N+](=O)[O-])c1,growth inhibition,[1]; [8],inactive: -2%
same,growth inhibition,[1]; [9],inactive: -5%
same,growth inhibition,[1]; at 50.0 µM,active: 93.6%
same,growth inhibition,[2]; [8],inactive: 0%
same,growth inhibition,[2]; [9],inactive: 2%
same,growth inhibition,[2]; at 50.0 µM,active: 78.8%
same,growth inhibition,[3]; [8],inactive: -14%
same,growth inhibition,[3]; [9],inactive: 10%
same,growth inhibition,[3]; at 50.0 µM,active: 95.2%
same,growth inhibition,[4]; [8],inactive: 4%
same,growth inhibition,[4]; [9],inactive: -7%
same,growth inhibition,[4]; at 50.0 µM,active: 97.8%
same,growth inhibition,[5]; [8],inactive: -2%
same,growth inhibition,[5]; [9],inactive: -3%
same,growth inhibition,[5]; at 50.0 µM,active: 78%
same,growth inhibition,[6]; [8],inactive: 1%
same,growth inhibition,[6]; [9],inactive: -6%
same,growth inhibition,[6]; at 50.0 µM,active: 91.2%

# From PubChem BioAssay (NCI)
